Source: US8741926B2, “Macrocyclic inhibitors of hepatitis C virus” (Tibotec Pharmaceuticals Ltd., priority 2005, dated 2014)

Protein sequences, listed by entry. Tags and fused reporters are not part of them. Residues count along the entry.
UniProt P27958, 1027-1657: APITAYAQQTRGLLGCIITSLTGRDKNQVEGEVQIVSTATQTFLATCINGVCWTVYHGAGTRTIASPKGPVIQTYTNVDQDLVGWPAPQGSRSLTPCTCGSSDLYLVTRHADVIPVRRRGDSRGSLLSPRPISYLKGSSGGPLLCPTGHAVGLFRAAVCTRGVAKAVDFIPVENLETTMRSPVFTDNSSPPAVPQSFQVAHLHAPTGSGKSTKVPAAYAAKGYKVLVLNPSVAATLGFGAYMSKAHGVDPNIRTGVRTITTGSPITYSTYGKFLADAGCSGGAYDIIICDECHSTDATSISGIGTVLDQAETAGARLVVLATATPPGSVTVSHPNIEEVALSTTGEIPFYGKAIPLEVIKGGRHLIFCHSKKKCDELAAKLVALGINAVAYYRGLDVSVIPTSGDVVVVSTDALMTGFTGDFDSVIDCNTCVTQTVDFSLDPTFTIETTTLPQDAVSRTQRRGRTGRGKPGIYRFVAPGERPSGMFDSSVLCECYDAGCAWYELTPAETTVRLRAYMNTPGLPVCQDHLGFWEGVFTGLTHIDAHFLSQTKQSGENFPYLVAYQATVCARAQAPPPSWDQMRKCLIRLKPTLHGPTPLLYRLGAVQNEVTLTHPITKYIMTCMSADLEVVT

Target: HCV NS3/4A protease (Hepatitis C virus genotype 1a (isolate H77) (HCV), UniProt P27958)
Test: Inhibition assay (enzymatic assay) of full-length NS3 protease with NS4A cofactor
Assay type: biochemical
Conditions: full-length NS3 protease 1 nM, 25 μM NS4A cofactor, depsipeptide substrate, competitive inhibition model
Method: [Landro, 1997 #Biochem 36 9340-9348]. […] The solutions were stored at −20° C. between measurements.
[Liu, 1999 Analytical Biochemistry 267 331-335].

SMILES: COc1ccc2c(O[C@@H]3C[C@H]4C(=O)N[C@]5(C(=O)NS(=O)(=O)C6CC6)C[C@H]5/C=C\CCCCN(C)C(=O)[C@@H]4C3)cc(-c3nc(C(C)C)cs3)nc2c1Cl [Compound 56, N-[17-[8-chloro-2-(4-isopropylthiazole-2-yl)-7-methoxyquinolin-4-yloxy]-13-methyl-2,14-dioxo-3,13-diazatricyclo[13.3.0.0^4,6]-octadec-7-ene-4-carbonyl](cyclopropyl)sulfonamide]
- Ki: 0.0001 µM
